We go through one compound from PMC12311865, “In Vitro Evaluation of the Potential Interactions of Zearalenone-14-sulfate and Zearalenone-14-glucuronide with Human Cytochrome P450 Enzymes, Organic Anion Transporting Polypeptides, and ATP-Binding Cassette Multidrug Transporters” (ACS Omega, 2025).

Sequences of proteins named here, by UniProt entry; tags and fusion partners are left off.
UniProt P05177, whole entry: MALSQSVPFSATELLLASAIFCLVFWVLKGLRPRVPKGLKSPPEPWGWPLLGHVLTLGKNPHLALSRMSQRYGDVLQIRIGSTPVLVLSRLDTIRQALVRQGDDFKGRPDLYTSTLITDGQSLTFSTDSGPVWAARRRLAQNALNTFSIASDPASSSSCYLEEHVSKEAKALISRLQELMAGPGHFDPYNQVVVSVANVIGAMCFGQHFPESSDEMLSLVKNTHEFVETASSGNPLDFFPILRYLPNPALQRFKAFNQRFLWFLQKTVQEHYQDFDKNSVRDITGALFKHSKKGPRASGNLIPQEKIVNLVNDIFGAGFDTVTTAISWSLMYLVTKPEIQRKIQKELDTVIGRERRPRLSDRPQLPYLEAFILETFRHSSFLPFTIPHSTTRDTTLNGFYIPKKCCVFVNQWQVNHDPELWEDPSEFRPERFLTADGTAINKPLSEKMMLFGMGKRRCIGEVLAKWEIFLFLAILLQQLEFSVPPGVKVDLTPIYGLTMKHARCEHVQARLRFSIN

The target of the data set is CYP1A2 (Homo sapiens, UniProt P05177).

On to `O=c1cc(-c2ccccc2)oc2c1ccc1ccccc12` [α-naphthoflavone, reference compound], for which the “inhibition of CYP1A2 activity” value is listed as “more than 90%”.
